Amino acid sequences for entries named in this document (tags omitted). Residues count along the entry.
UniProt P43220, 24-463: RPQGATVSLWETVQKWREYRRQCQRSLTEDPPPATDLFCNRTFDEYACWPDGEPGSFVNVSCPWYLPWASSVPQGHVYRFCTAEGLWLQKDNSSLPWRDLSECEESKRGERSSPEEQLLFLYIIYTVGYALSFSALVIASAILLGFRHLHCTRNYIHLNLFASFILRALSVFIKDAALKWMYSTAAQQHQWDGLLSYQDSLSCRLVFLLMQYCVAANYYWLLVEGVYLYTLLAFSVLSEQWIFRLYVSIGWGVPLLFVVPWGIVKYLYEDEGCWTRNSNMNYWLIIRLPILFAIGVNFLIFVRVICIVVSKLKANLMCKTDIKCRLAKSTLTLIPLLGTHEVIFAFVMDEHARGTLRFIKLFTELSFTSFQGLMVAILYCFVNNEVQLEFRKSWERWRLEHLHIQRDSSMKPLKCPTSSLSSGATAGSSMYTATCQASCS
UniProt P47871, 26-477: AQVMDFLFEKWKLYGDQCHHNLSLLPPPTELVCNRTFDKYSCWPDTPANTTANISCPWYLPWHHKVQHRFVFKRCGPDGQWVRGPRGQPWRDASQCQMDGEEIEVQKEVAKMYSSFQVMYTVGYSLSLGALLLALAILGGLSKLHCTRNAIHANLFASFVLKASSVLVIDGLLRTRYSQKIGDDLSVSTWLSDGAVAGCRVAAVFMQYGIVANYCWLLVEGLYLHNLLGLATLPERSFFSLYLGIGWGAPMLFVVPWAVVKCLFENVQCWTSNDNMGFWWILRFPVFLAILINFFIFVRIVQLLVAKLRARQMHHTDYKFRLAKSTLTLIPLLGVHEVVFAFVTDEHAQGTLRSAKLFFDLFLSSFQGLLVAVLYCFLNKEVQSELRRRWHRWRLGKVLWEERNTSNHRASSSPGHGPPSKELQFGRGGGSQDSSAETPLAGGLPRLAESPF

According to US20140100156A1 (SANOFI, priority 2012, published 2014):

What was measured:
[1] = target: T1, human GLP-1 receptor (Homo sapiens, UniProt P43220); assay: cAMP response (HTRF) of HEK-293 cells stably expressing human GLP-1 receptor; assay type: cell-based; conditions: Table 8, comparison testing of position 14; read-out: EC50 hGLP-1R
T1 construct: expressed in transfected cells; host or cells: HEK-293

[2] = target: T2, human glucagon receptor (Homo sapiens, UniProt P47871); assay: cAMP response (HTRF) of HEK-293 cells stably expressing human glucagon receptor; assay type: cell-based; conditions: Table 8, comparison testing of position 14; read-out: EC50 hGlucagon-R
T2 construct: expressed in transfected cells; host or cells: HEK-293

Compound | EC50 [1] | EC50 [2]
CC[C@H](C)[C@H](NC(=O)[C@H](Cc1ccccc1)NC(=O)[C@H](CC(=O)O)NC(=O)[C@H](CCC(N)=O)NC(=O)[C@H](C)NC(=O)[C@H](C)NC(=O)[C@H](CCCCN)NC(=O)[C@H](CO)NC(=O)[C@H](CCC(=O)O)NC(=O)[C@H](CCSC)NC(=O)[C@H](CCC(N)=O)NC(=O)[C@H](CCCCN)NC(=O)[C@H](CO)NC(=O)[C@H](CC(C)C)NC(=O)[C@H](CC(=O)O)NC(=O)[C@H](CO)NC(=O)[C@@H](NC(=O)[C@H](Cc1ccccc1)NC(=O)[C@@H](NC(=O)CNC(=O)[C@H](CCC(N)=O)NC(=O)[C@@H](CO)NC(=O)[C@@H](N)Cc1c[nH]cn1)[C@@H](C)O)[C@@H](C)O)C(=O)N[C@@H](CCC(=O)O)C(=O)N[C@@H](Cc1c[nH]c2ccccc12)C(=O)N[C@@H](CC(C)C)C(=O)N[C@@H](CCCCN)C(=O)N[C@@H](C)C(=O)NCC(=O)NCC(=O)N1CCC[C@H]1C(=O)N[C@@H](CO)C(=O)N[C@@H](CO)C(=O)NCC(=O)N[C@@H](C)C(=O)N1CCC[C@H]1C(=O)N1CCC[C@H]1C(=O)N1CCC[C@H]1C(=O)N[C@@H](CO)C(N)=O [compound 189] | 0.0056 nM | 1.68 nM
CC[C@H](C)[C@H](NC(=O)[C@H](Cc1ccccc1)NC(=O)[C@H](CC(=O)O)NC(=O)C(C)(C)NC(=O)[C@H](C)NC(=O)[C@H](CCCNC(=N)N)NC(=O)[C@H](CCCNC(=N)N)NC(=O)[C@H](CO)NC(=O)[C@H](CCC(=O)O)NC(=O)[C@H](CCSC)NC(=O)[C@H](CCC(N)=O)NC(=O)[C@H](CCCCN)NC(=O)[C@H](CO)NC(=O)[C@H](CC(C)C)NC(=O)[C@H](CC(=O)O)NC(=O)[C@H](CO)NC(=O)[C@@H](NC(=O)[C@H](Cc1ccccc1)NC(=O)[C@@H](NC(=O)CNC(=O)[C@H](CCC(N)=O)NC(=O)[C@@H](CO)NC(=O)[C@@H](N)Cc1c[nH]cn1)[C@@H](C)O)[C@@H](C)O)C(=O)N[C@@H](CCC(=O)O)C(=O)N[C@@H](Cc1c[nH]c2ccccc12)C(=O)N[C@@H](CC(C)C)C(=O)N[C@@H](CCCCN)C(=O)N[C@@H](C)C(=O)NCC(=O)NCC(=O)N1CCC[C@H]1C(=O)N[C@@H](CO)C(=O)N[C@@H](CO)C(=O)NCC(=O)N[C@@H](C)C(=O)N1CCC[C@H]1C(=O)N1CCC[C@H]1C(=O)N1CCC[C@H]1C(=O)N[C@@H](CO)C(N)=O [compound 190] | 0.0213 nM | 1.56 nM
CCCC[C@H](NC(=O)[C@H](CCC(N)=O)NC(=O)[C@H](CCCCN)NC(=O)[C@H](CO)NC(=O)[C@H](CC(C)C)NC(=O)[C@H](CC(=O)O)NC(=O)[C@H](CO)NC(=O)[C@@H](NC(=O)[C@H](Cc1ccccc1)NC(=O)[C@@H](NC(=O)CNC(=O)[C@H](CCC(N)=O)NC(=O)[C@@H](CO)NC(=O)[C@@H](N)Cc1c[nH]cn1)[C@@H](C)O)[C@@H](C)O)C(=O)N[C@@H](CC(=O)O)C(=O)N[C@@H](CO)C(=O)N[C@@H](CCCCN)C(=O)N[C@@H](C)C(=O)N[C@@H](C)C(=O)N[C@@H](CCC(N)=O)C(=O)N[C@@H](CC(=O)O)C(=O)N[C@@H](Cc1ccccc1)C(=O)N[C@H](C(=O)N[C@@H](CCC(=O)O)C(=O)N[C@@H](Cc1c[nH]c2ccccc12)C(=O)N[C@@H](CC(C)C)C(=O)N[C@@H](CCCCN)C(=O)N[C@@H](C)C(=O)NCC(=O)NCC(=O)N1CCC[C@H]1C(=O)N[C@@H](CO)C(=O)N[C@@H](CO)C(=O)NCC(=O)N[C@@H](C)C(=O)N1CCC[C@H]1C(=O)N1CCC[C@H]1C(=O)N1CCC[C@H]1C(=O)N[C@@H](CO)C(N)=O)[C@@H](C)CC [compound 192] | 0.0068 nM | 0.478 nM
